Laboratory results: US20040186117A1, “Marker” (priority 2001, published 2004)

What was measured:
[1] = test system: RB phosphorylation (Ser780) in KM12 cells; conditions: for concentration causing loss/reduction of RB phosphorylation (Ser780): asynchronous KM12, 24 h exposure
[2] = test system: RB phosphorylation (Ser780, Ser608) in HT29 cells; experiment: Western blotting for RB phosphorylation in HT29 cells; conditions: for concentration causing loss/reduction of RB phosphorylation (Ser780; Ser608): asynchronous HT29, 24 h exposure
[3] = test system: ERK1/2 phosphorylation in HT29 cells; experiment: Western blotting for phospho-ERK1/2 in HT29 cells; type: cell-based, human; conditions: HT29, 24 h exposure
[4] = test system: c-FOS protein in HT29 cells; conditions: HT29, 24 h exposure

Structure (SMILES) | concentration giving a small reduction in phosphorylation at Ser780 ([1]; KM12, 24 h exposure) [µM] | concentration causing loss/reduction of RB phosphorylation (Ser780) [1] [µM] | concentration giving full inhibition of RB phosphorylation at Ser608 and Ser780 ([2]; HT29, 24 h exposure) [µM] | concentration causing loss/reduction of RB phosphorylation (Ser780; Ser608) [2] [µM] | concentration giving an increase in ERK phosphorylation [3] [µM] | concentration giving an increase in c-FOS protein [4] [µM]
CC[C@H](CO)Nc1nc(NCc2ccccc2)c2ncn(C(C)C)c2n1 (racemic) [roscovitine] | 10 | ≥ 20 | ≥ 50 | 20 |  | 
CC[C@H](CO)Nc1nc(NCc2ccccc2)c2ncn(C(C)C)c2n1 [R-roscovitine, 2-(R)-(1-ethyl-2-hydroxyethylamino)-6-benzylamino-9-isopropylpurine] |  | ≥ 20 |  | ≥ 20 | ≥ 50 | ≥ 50
